# Measurements taken from PubChem BioAssay AID454 (Sanford-Burnham Center for Chemical Genomics, 2006).
# Only a part is listed here, and it is no random draw. Calls of active or inactive are those of the source.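 Rule for the calls: active = compound among top-ranked inhibitors of TNF-induced VCAM-1 adhesion protein staining, with the hit upheld by image or statistical review; inactive = the rest, including hits rejected on review.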
# Assay: suppression of endothelial VCAM-1 upregulation – cell-based, plate reader, pooled HUVEC, TNFa stimulus (AID 454)
# Settings: HUVEC TNFa-induced VCAM-1 surface immunofluorescence, hits give high values,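 compound tested at 5 µM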
row,Compound,inhibition
1,COP1(=S)c2c(C)nn(CCC#N)c2N=C(c2ccc(F)cc2)N1C (stereo not given),inactive: 0%
2,O=C(COc1ccccc1)OC1CN2CCC1CC2 (stereo not given),inactive: 0%
3,Cc1nn(-c2ccccc2)c2c1P(=O)(N1CCOCC1)N(C)C(c1ccccc1)=N2 (stereo not given),inactive: 0%
4,CCOP1(=S)c2c(C)nn(CCC#N)c2N=C(c2ccccc2F)N1C (stereo not given),inactive: 0%
5,O=P(Nc1nccs1)(c1ccccc1)c1ccccc1,inactive: 0%
